An excerpt weighted towards active compounds, which were near 2.2% of everything screened.
Nrf2 ARE act = activators of Nrf2 (ARE) signaling; hit rate 0.31% among 410,000; AID 624171; Potency, µM (doses to about 46.1 µM), inactives show at the highest dose activation, actives largely listed as activators; AREc32 ARE-luciferase reporter (MCF7-derived line), luminescence, 24 h; further: potency means the concentration at half of the fitted maximal effect; % of control where 0% means no effect; nearly all actives have a fitted effect of over 65% in size
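Luciferase luminescence (Steady-Glo, 30 min at room temperature) served as the read-out of ARE activation in AREc32 cells treated with compounds for 24 hr at 37 deg C.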
miR-21 reporter = raises the signal of a miR-21 reporter. Potency, µM (highest dose often 38.3 µM), without a hit: top-dose reporter change, positive = more light. 340,000 tested, under 10 active. HeLa miR-21 FLuc reporter, luciferase, 48 h; active = well fitted rising curve with a large enough effect; inconclusive = small, poorly fitted or top-dose-only effect; inactive = no such curve, though single readings can be large or run the other way;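 further: % of control where 0% means no effect; miR-21 action dims this reporter so a rising signal means less miR-21 action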
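Compounds were titrated across several concentrations (up to approximately 40 uM) and incubated 48 hours with HeLa miR-21-FLuc reporter cells (miR-21 target sequence downstream of FLuc, endogenous miR-21). Readout was firefly luciferase luminescence after lytic detection reagent.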
GALK inh = inhibitors of human galactokinase; Purified GALK, Kinase-Glo residual ATP luminescence; Potency, µM (series often up to 57.5 µM), for the others: top-dose activity change, negative = inhibition, hits mostly inhibitors; AID 1868; hit rate 0.007% among 270,000; P51570; further: potency means the concentration at half of the fitted maximal effect; on the % scale 0 is the no-effect control and ±100 the full control effect
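Luminescence from leftover ATP (Ultra-Glo luciferase/luciferin) served as read-out after a 1 h room-temperature reaction of 5 nM GALK with 35 uM ATP and 100 uM galactose.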
PI4K2A inh = PI4K2A (human) kinase inhibition. Q9BTU6. purified PI4K2A, ADP-Glo luminescence, 1 h; stronger effect = lower value. activity change, negative = inhibition, % at 76.9 µM. hit rate 0.13% among 420,000. AID 1346378; in the data active means activity change below about -50%; inconclusive means mostly about -30% to -49%;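 further: -100% = wells without enzyme as full effect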
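ADP-Glo luminescence measured ADP generated by PI4K2A enzyme (4 ug/mL before mixing) with 1.2 mM PI substrate (pre-mix) and 300 microM ATP (pre-mix). Tris pH7.5 buffer with MgCl2, Triton X-100; 1 h reaction at ambient temperature.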
A549 tox = kills or reduces viability of A549 cells in Nrf2 counter-screen; A549 ARE-Fluc cells, CellTiter-Fluor viability, 18-24 h; Potency, µM (series often up to 46 µM), without a hit: at the top dose activity change, negative = cytotoxicity, most hits filed as inhibitors; hit rate 0.16% among 390,000; AID 504648; further: potency means the concentration at half of the fitted maximal effect; on the % scale 0 is the no-effect control and ±100 the full control effect
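A549 ARE_Fluc cells in 5% FBS OPTI-MEM were exposed to compounds in concentration-response for 18-24 h at 37 deg C. Viability was read by CellTiter-Fluor fluorescence (Ex 405/Em 525) after 30 min, before the luciferase read.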
Nrf2 inh = inhibitors of Nrf2 signaling. A549 ARE-Fluc reporter, luciferase luminescence, 18-24 h. Potency, µM (highest dose often 46 µM), inactives show at the top dose activity change, negative = inhibition, usual class: inhibitors. hit rate 2.1% among 360,000. AID 504444; further: potency means the concentration at half of the fitted maximal effect; on the % scale 0 is the no-effect control and ±100 the full control effect; nearly all actives have a fitted effect of over 60% in size
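Concentration-response testing used A549 ARE_Fluc cells at 5000 cells/well. Following an 18-24 h compound incubation, viability was read by fluorescence (Ex 405/Em 525) and luciferase output by luminescence.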
An asterisk follows results filed as active; ? = inconclusive; nt = not tested or not shown. Unless noted, the call rests on the fitted dose curve; in most records, active means well fitted curve in the direction sought with a large enough effect; inconclusive means small, poorly fitted or top-dose-only effect, or another doubt; inactive means no such curve, though single readings can be large; an effect the other way counts as inactive or inconclusive.

(1) Cc1ccc(NNC(=O)C(O)(c2cccc(C(F)(F)F)c2)c2cccc(C(F)(F)F)c2)cc1
(2) O=C(NNc1ccccc1Br)C(O)(c1cccc(C(F)(F)F)c1)c1cccc(C(F)(F)F)c1
(3) CC(=O)CC[C@@H]1CC[C@]2(CCCN(S(=O)(=O)C3CCCCC3)C2)O1
(4) CCN(CC)S(=O)(=O)c1cc(NC(=O)C(C)N(C)CC(=O)Nc2c(C)cccc2C)ccc1C (stereo unspecified)
(5) CCN(CC)S(=O)(=O)c1cc(NC(=O)CSc2nnc(N)s2)ccc1C
(6) CCN(CC)S(=O)(=O)c1cc(NC(=O)CSc2nc3c(cc2C#N)C(=O)CC(C)(C)C3)ccc1C
(7) Cc1ccc(NC(=O)OC2CCC23CCCCC3)cc1 (stereo unspecified)
(8) Cn1ccc2ccc(-c3ccc4c(c3)[C@]3(CCC[C@@H](OCc5ccccc5)[C@@H]3NC(=O)CCc3ccccc3)C(=O)N4Cc3ccccc3)cc21

Compound,1,2,3,4,5,6,7,8
Nrf2 ARE act,3%,-2%,nt,3%,-1%,8%,nt,nt
miR-21 reporter,28%,?,nt,-3%,nt,-1%,nt,nt
GALK inh,nt,nt,nt,2%,nt,-3%,nt,nt
PI4K2A inh,7,-6,-5,0,-4,1,4,-4
A549 tox,?,?,nt,?,-3%,?,nt,nt
Nrf2 inh,23µM*,?,nt,16µM*,3%,18µM*,nt,nt

(9) COc1cccc(NS(=O)(=O)c2c(C)cc(C)cc2C)c1
(10) COc1ccc(NS(=O)(=O)c2c(C)cc(C)cc2C)cc1
(11) CCNc1nc(C#N)nc(N2CCOCC2)n1
(12) CC1=C(C)CS(=O)N(c2ccc(S(N)(=O)=O)cc2)C1 (stereo unspecified)
(13) CC1=C(C)CS(=O)N(S(=O)(=O)c2ccccc2)C1 (stereo unspecified)
(14) C[C@H]1[C@@H](OC(=O)N2CCN(c3ccccc3)CC2)CC[C@@]23CCCN2C(=O)CCC[C@@H]13
(15) C=C(C)C(=O)OCC(O)CO (stereo unspecified)
(16) Cc1cc2c(s1)c1cnn(Cc3ccc(Cl)cc3)c(=O)c1n2C

Compound,9,10,11,12,13,14,15,16
Nrf2 ARE act,2%,0%,nt,0%,0%,nt,nt,nt
miR-21 reporter,8%,18%,nt,-4%,9%,nt,nt,nt
GALK inh,6%,0%,nt,-2%,0%,nt,nt,nt
PI4K2A inh,7,-1,nt,-52*,-13,-3,5,nt
A549 tox,0%,?,-7%,-2%,-16%,nt,nt,-6%
Nrf2 inh,-4%,21µM*,16µM*,-6%,-16%,nt,nt,3%

(17) CCN(CC)c1ccc2c(c1)oc(=O)c1c(Cl)cc(=O)oc12
(18) CCN(CC)c1ccc2c(C)c(Cl)c(=O)oc2c1
(19) CCN1CCN(c2cc(N3CCN(C(=O)c4ccco4)CC3)c3c4c(onc24)-c2ccccc2C3=O)CC1
(20) O=C1c2ccccc2-c2onc3c(NCCO)cc(NC4CCCCC4)c1c23
(21) O=C(O)CCNc1cc(N2CCN(C(=O)c3ccco3)CC2)c2noc3c2c1C(=O)c1ccccc1-3
(22) COc1ccc2oc(=O)c(-c3nc(-c4cccs4)no3)cc2c1
(23) O=c1oc2ccccc2cc1-c1nc(-c2cccs2)no1
(24) CCOC(=O)NC[C@@]1(C(=O)OC)CC(=O)N(Cc2ccc(Cl)cc2)[C@@H]1c1ccc(OC)cc1

Compound,17,18,19,20,21,22,23,24
Nrf2 ARE act,8.9µM*,3%,5%,-1%,4%,13%,13µM*,nt
miR-21 reporter,-4%,-14%,5%,?,17%,-18%,-65%,nt
GALK inh,-13%,-1%,9%,nt,2%,nt,nt,nt
PI4K2A inh,?,-1,-23,?,-61*,-2,-1,-2
A549 tox,?,?,?,?,18µM*,5%,7%,nt
Nrf2 inh,16%,7%,-10%,21µM*,?,?,nt,nt

(25) COc1ccc(C(=O)N(Cc2ccccc2)Cc2ccco2)c(O)c1
(26) COc1ccccc1C1CC(c2cccs2)=Nc2ccccc2S1 (stereo unspecified)
(27) CCCN1CNc2c(c(=O)[nH]c(=S)n2CCc2ccc(C)cc2C)C1
(28) CCC(C)Sc1ccc(-c2nc3cnccn3c2NC2CCCCC2)cc1 (stereo unspecified)
(29) COc1ccc(C2/C=C\CN(C(=O)Nc3ccc(C(F)(F)F)cc3)CC(=O)N2Cc2ccc(F)cc2)cc1 (stereo unspecified)
(30) CCCCC(=O)N1C/C=C\C(c2ccc(OC)cc2)N(Cc2ccc(F)cc2)C(=O)C1Cc1ccccc1 (stereo unspecified)
(31) COc1ccc(C2/C=C\CN(C(=O)Nc3ccccc3)CC(=O)N2Cc2ccc(F)cc2)cc1 (stereo unspecified)
(32) CCCCCCC(=O)N1C/C=C\C(c2ccc(OC)cc2)N(Cc2ccc(F)cc2)C(=O)C1Cc1ccccc1 (stereo unspecified)

Compound,25,26,27,28,29,30,31,32
Nrf2 ARE act,nt,18µM*,nt,-1%,0%,nt,0%,nt
miR-21 reporter,nt,5%,nt,nt,?,nt,5%,nt
GALK inh,nt,-1%,nt,nt,0%,nt,2%,nt
PI4K2A inh,nt,-16,nt,-2,1,nt,-1,nt
A549 tox,2%,0%,3%,-29%,-4%,-21%,-1%,-18%
Nrf2 inh,28%,16%,9%,23µM*,23µM*,23µM*,-9%,?

(33) C[C@H](O)[C@@H]1CN2CCc3c([nH]c4c(-c5ccc6c(c5)OCO6)cccc34)[C@@H]2C[C@@H]1N(C)C(=S)NCCc1ccccc1
(34) CCN(CC)C(=O)CC[C@H]1CC[C@]2(CCCN(Cc3cccnc3)C2)O1
(35) O=C1Nc2ccccc2/C1=N/N=C/c1cccc(O)c1
(36) COc1cc(/C=N/N=C2/C(=O)Nc3ccccc32)cc(OC)c1O
(37) CN(C(=O)CSc1nc2ccc(NC(=O)c3cccc(F)c3)cc2s1)c1ccccc1
(38) Cn1c(CN2CCCCC2)nc2cc(NC(=O)c3cccc(Br)c3)ccc21
(39) O=C(Nc1ccc2nc(SCC(=O)N3CCCC3)sc2c1)c1cccc(Br)c1
(40) CN(C(=O)CSc1nc2ccc(NC(=O)c3ccccc3F)cc2s1)c1ccccc1

Compound,33,34,35,36,37,38,39,40
Nrf2 ARE act,nt,nt,24%,11µM*,0%,-1%,5%,-1%
miR-21 reporter,nt,nt,-4%,-16%,?,19%,?,-13%
GALK inh,nt,nt,nt,2%,nt,2%,nt,nt
PI4K2A inh,15,-2,2,-2,-1,0,-2,-2
A549 tox,nt,nt,-5%,2%,-7%,-16%,-27%,?
Nrf2 inh,nt,nt,-3%,16%,21µM*,1.3µM*,18µM*,?

(41) Cc1ccccc1OCC(=O)Nc1ccc2nc(SCC(=O)N3CCCC3)sc2c1
(42) Cn1c(CN2CCCCC2)nc2cc(NC(=O)c3ccccc3)ccc21
(43) O=C(Nc1ccc2nc(SCC(=O)N3CCOCC3)sc2c1)c1cccc(Cl)c1
(44) O=C(Nc1ccc2nc(SCC(=O)N3CCCC3)sc2c1)c1cccc(Cl)c1

Compound,41,42,43,44
Nrf2 ARE act,6%,0%,0%,4%
miR-21 reporter,6%,-6%,?,?
GALK inh,nt,-3%,nt,nt
PI4K2A inh,-9,7,-1,-1
A549 tox,-22%,-5%,?,?
Nrf2 inh,18µM*,8%,23µM*,?

Screens: PubChem BioAssay, National Center for Advancing Translational Sciences (NCATS)
